Measured values reported in patent US20080182249A1, “Expression systems for mammalian and mycobacterial desaturases” (priority 2006, published 2008).

Target: T1, recombinant mouse stearoyl-CoA desaturase 1 (mSCD1) (UniProt P21147)
T1 sequence: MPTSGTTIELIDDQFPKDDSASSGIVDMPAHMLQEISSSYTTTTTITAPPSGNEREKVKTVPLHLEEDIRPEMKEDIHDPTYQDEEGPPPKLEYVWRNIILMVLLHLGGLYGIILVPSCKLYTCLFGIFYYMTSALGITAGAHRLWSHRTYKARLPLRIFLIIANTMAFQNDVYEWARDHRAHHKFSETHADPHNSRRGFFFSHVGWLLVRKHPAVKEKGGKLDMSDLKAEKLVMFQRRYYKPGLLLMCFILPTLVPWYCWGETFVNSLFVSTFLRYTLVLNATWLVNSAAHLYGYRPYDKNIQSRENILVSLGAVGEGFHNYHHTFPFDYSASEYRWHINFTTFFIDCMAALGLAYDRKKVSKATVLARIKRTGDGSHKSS

With soluble human cytochrome b5 reductase the “% change vs. mSCD1 (conversion of 18:0-CoA to 18:1-CoA)” value was -14.2%.
